Source: PubChem BioAssay (National Center for Advancing Translational Sciences (NCATS))
A549 tox = counter-screen for Nrf2 inhibitors: cytotoxicity in A549 cells; A549 ARE-Fluc cells, CellTiter-Fluor viability, 18-24 h; Potency, µM (doses to about 46 µM), hits mostly inhibitors; hit rate 0.16% among 390,000
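A549 ARE-Fluc cells in 5% FBS OPTI-MEM, 5000 cells/well, rested 2 h then exposed to compounds in concentration-response for 18-24 h at 37 °C. Viability by CellTiter-Fluor fluorescence (Ex 405/Em 525) after 30 min; luciferase luminescence (BugLite, 15 min, RT) read afterwards.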
miR-21 reporter = raises the signal of a miR-21 reporter; AID 2288; 340,000 tested, under 10 active; Potency, µM (doses to about 38.3 µM); HeLa miR-21 FLuc reporter, luciferase, 48 h; active = well fitted rising curve with a large enough effect; inconclusive = small, poorly fitted or top-dose-only effect; inactive = no such curve, though single readings can be large or run the other way;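 note: miR-21 action dims this reporter so a rising signal means less miR-21 action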
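HeLa cells stably expressing CMV-driven firefly luciferase with a downstream miR-21 binding sequence, endogenously expressing miR-21, were treated with titrations (up to about 40uM final) for 48 hours at 37 degree Celsius. Luciferase luminescence was read after lysis.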
B2AR arrestin = recruits beta-arrestin to the human beta2-adrenergic receptor; hit rate 0.02% among 330,000; P07550; beta-arrestin recruitment to beta2AR, cell-based reporter; Potency, µM (titrated, usually from 46.1 µM), usual class: activators; note: nearly all actives have a fitted effect of over 65% in size
Nrf2 block = Nrf2 pathway inhibition. Potency, µM (doses to about 46 µM), hits mostly inhibitors. A549 ARE-Fluc reporter, luciferase luminescence, 18-24 h. hit rate 2.1% among 360,000; note: nearly all actives have a fitted effect of over 60% in size
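Cells were seeded and rested 2 h, then exposed to compounds for 18-24 h. CellTiter-Fluor was read first as a viability measure. BugLite was added 15 min before the final luminescent read of ARE-luciferase activity in A549 cells.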
Nrf2 activator = activates Nrf2 signaling. AREc32 ARE-luciferase reporter (MCF7-derived line), luminescence, 24 h. Potency, µM (doses to about 46.1 µM), usual class: activators. hit rate 0.31% among 410,000. AID 624171; note: nearly all actives have a fitted effect of over 65% in size
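AREc32 cells carrying an ARE-driven firefly luciferase, 1000 cells/well in OPTI-MEM with 5% FBS, dosed after overnight attachment and incubated 24 hr at 37 deg C. Steady-Glo luminescence read after 30 min at RT.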
Large screens that a line does not name were inactive. An excerpt weighted towards active compounds, which were near 2.2% of everything screened. Unless noted, calls come from the whole dose curve; as a rule, active = well fitted curve in the direction sought with a large enough effect; inconclusive = small, poorly fitted or top-dose-only effect, or another doubt; inactive = no such curve, though single readings can be large; an effect the other way counts as inactive or inconclusive.

CC(C)(C)OC(=O)N1CCN(c2nc(-c3cccs3)nc3ccccc23)CC1	Nrf2 block inconclusive (no result: miR-21 reporter, B2AR arrestin, Nrf2 activator)
COc1ccc2c(c1)Cc1sc(NC(=O)c3cccc(C)c3)nc1-2	Nrf2 block 21µM (no result: B2AR arrestin)
N#Cc1nc(-c2ccc(OCc3ccc(Cl)cc3)cc2)oc1N1CCCC1	none (no result: miR-21 reporter, B2AR arrestin, Nrf2 activator)
CCC1CCCCN1CCCNC(=O)c1[nH]c2ccccc2c1Sc1ccc(Cl)cc1 (centres undefined)	none (no result: B2AR arrestin)
COC(=O)N/N=C/c1cccs1	none
COC(=O)C(=C/C(C)=C/c1cccs1)C(=O)OC	Nrf2 activator 14µM
CCc1ccc(OC(C)C(=O)N2CCC(c3nc4ccccc4s3)CC2)cc1 (centres undefined)	Nrf2 block 18µM (no result: B2AR arrestin)
O=C(COc1ccc([N+](=O)[O-])cc1)N1CCC(c2nc3ccccc3s2)CC1	Nrf2 block 15µM (no result: B2AR arrestin)
COc1ccc(OCC(=O)N2CCC(c3nc4ccccc4s3)CC2)cc1	none (no result: B2AR arrestin)
Cc1ccc2c(c1)C(c1ccc(F)cc1)N(C(=O)COc1ccc(Cl)cc1Cl)CC(=O)N2 (centres undefined)	A549 tox inconclusive, miR-21 reporter inconclusive (no result: B2AR arrestin)
CCC(=O)Nc1ccc(C(=O)OCC(=O)c2ccc(C)c([N+](=O)[O-])c2)cc1	Nrf2 block 7.3µM (no result: A549 tox)
O=C(CSc1cn(CCNC(=O)c2cccc(C(F)(F)F)c2)c2ccccc12)Nc1ccc2c(c1)OCCO2	A549 tox inconclusive, miR-21 reporter inconclusive, Nrf2 block 16µM (no result: B2AR arrestin)
CC(/C=N/NC(=O)Cc1cccs1)=C\c1ccco1	Nrf2 activator 14µM
Cn1c(SCC(=O)N/N=C/c2ccco2)nc2ccccc21	Nrf2 block inconclusive
CC(C)(C)NC(=O)/C(=C\c1ccco1)NC(=O)c1cccs1	none
C/C(=N/NC(=O)c1cccs1)c1ccco1	Nrf2 activator 13µM
CC(/C=N/NC(=O)c1cccs1)=C\c1ccco1	Nrf2 block inconclusive, Nrf2 activator 14µM
CC(/C=N/NC(=O)CSc1nc2ccccc2n1C)=C\c1ccco1	Nrf2 activator 13µM
CCCN1C(=O)c2ccccc2NC1c1ccc(OC)c(COc2ccc([N+](=O)[O-])cc2)c1 (centres undefined)	none (no result: miR-21 reporter, B2AR arrestin, Nrf2 activator)
CC(/C=N/NC(=O)c1cc(-c2ccncc2)nc2ccccc12)=C\c1ccco1	A549 tox 18µM, Nrf2 activator inconclusive
Cc1ccc(/C=N/NC(=O)c2cc(-c3ccncc3)nc3ccccc23)o1	Nrf2 block inconclusive
CCOC(=O)c1ccc(N2C(=O)c3[nH]nc(-c4ccc(C)cc4)c3C2c2ccc(O)c(OCC)c2)cc1 (centres undefined)	Nrf2 block 21µM (no result: B2AR arrestin)
CCOC(=O)c1ccc(N2C(=O)c3[nH]nc(-c4ccc(C)cc4)c3C2c2cccs2)cc1 (centres undefined)	A549 tox inconclusive, miR-21 reporter inconclusive, Nrf2 block 23µM (no result: B2AR arrestin)
CCOC(=O)c1ccc(N2C(=O)c3n[nH]c(-c4ccco4)c3C2c2ccc(O)c(OCC)c2)cc1 (centres undefined)	miR-21 reporter inconclusive, Nrf2 block inconclusive (no result: B2AR arrestin)
C/C=C(/C(=C/C)c1ccc(O)cc1)c1ccc(O)cc1	B2AR arrestin 1.5µM
Cc1ccnc(Nc2nc(-c3c(C)nc4sccn34)cs2)c1	Nrf2 block 21µM
CCOc1ccc(C(=O)c2cn(Cc3ccc(OC)cc3)c3cc(OC)c(OC)cc3c2=O)cc1	miR-21 reporter inconclusive (no result: B2AR arrestin)
CC(=O)c1ccc(S(=O)(=O)N2CCN(C(=O)c3ccc(N)c([N+](=O)[O-])c3)CC2)cc1	none (no result: miR-21 reporter)
Nc1ccc(C(=O)N2CCN(S(=O)(=O)c3ccc4c(c3)OCCCO4)CC2)cc1[N+](=O)[O-]	A549 tox inconclusive, Nrf2 block 26µM (no result: miR-21 reporter)
O=S1(=O)N=C(Oc2ccccc2Br)c2ccccc21	none (no result: miR-21 reporter, B2AR arrestin, Nrf2 activator)
CN1/C(=C\C=C2/SC(=S)N(CC(=O)O)C2=O)C(C)(C)c2ccccc21	A549 tox 9.2µM, Nrf2 block 4.1µM
C=CCN1C(=O)/C(=C\C=C2\N(C)c3ccccc3C2(C)C)SC1=S	A549 tox inconclusive
COc1ccc(C2Nc3ccccc3C(=O)N2Cc2ccccc2)cc1COc1ccc(C)cc1 (centres undefined)	none (no result: miR-21 reporter, B2AR arrestin, Nrf2 activator)
O=S1(=O)N=C(Oc2ccccc2Cl)c2ccccc21	none (no result: miR-21 reporter, B2AR arrestin, Nrf2 activator)
Cc1nn(C)c(C(=O)Nc2ccc(S(=O)(=O)NC34CC5CC(CC(C5)C3)C4)cc2)c1Br	A549 tox inconclusive, Nrf2 block 15µM
Cc1ccc(S(=O)(=O)NC23CC4CC(CC(C4)C2)C3)cc1	none (no result: miR-21 reporter)
COC(=O)c1ccc(S(=O)(=O)N2CCCN(Cc3ccc(F)cc3)CC2)n1C	Nrf2 block 13µM
O=C(Nc1nc(-c2cccs2)cs1)c1cccc(S(=O)(=O)N2CCCCCC2)c1	Nrf2 block inconclusive
CCc1noc(C)c1C(=O)Nc1nc(-c2cccs2)cs1	Nrf2 block inconclusive, Nrf2 activator inconclusive (no result: miR-21 reporter)
O=C(Nc1nc(-c2ccccc2)c(C(=O)c2ccccc2)s1)c1ccc(S(=O)(=O)N2CCCCC2)cc1	Nrf2 block 15µM
Cc1noc(C)c1C(=O)Nc1nc(-c2cccs2)cs1	Nrf2 block inconclusive, Nrf2 activator 16µM (no result: miR-21 reporter)
O=C(Nc1nc(-c2cccs2)cs1)c1ccc(S(=O)(=O)N2CCCCC2)cc1	miR-21 reporter inconclusive, Nrf2 block 21µM
CCOc1ccc(-c2nnc(SCC(=O)NCc3ccc(Cl)cc3)o2)cc1	none (no result: B2AR arrestin)
CC(C)CCNC(=O)Nc1ccc2c(c1)N(Cc1ccccc1)C(=O)c1ccccc1S2	miR-21 reporter inconclusive, Nrf2 block inconclusive (no result: B2AR arrestin)
C=C[C@H]1CN2CCC1C[C@@H]2C(O)c1ccnc2ccc(OC)cc12 (some centres undefined)	none (no result: miR-21 reporter, B2AR arrestin, Nrf2 activator)
Cc1ccc(C(C)C)c(OCC(=O)Nc2cc(-c3nc4ccccc4[nH]3)ccc2C)c1	A549 tox 9.2µM, Nrf2 block 6.5µM (no result: B2AR arrestin)
Cc1ccc(C(=O)Oc2coc(CSc3nnc(NC(=O)C4CC4)s3)cc2=O)cc1	Nrf2 block 21µM
COc1ccc(-c2nc3sc(CCNC(=O)c4cc(Cl)ccc4OC)c(C)n3n2)cc1	A549 tox inconclusive (no result: B2AR arrestin, Nrf2 block)
COc1ccc(-c2nc3ccccc3nc2-c2ccc(OC)c(OC)c2)cc1OC	Nrf2 block inconclusive
COc1ccc(-c2cc3ccccc3nc2N)cc1OC	Nrf2 block 16µM
Nc1nc(NCc2ccc(F)cc2)c2[nH]cnc2n1	none (no result: miR-21 reporter, B2AR arrestin, Nrf2 activator)
Cc1cccc(NC(=O)c2sc3nc4c(cc3c2N)CN(C(C)C)CC4)c1	Nrf2 block 16µM (no result: B2AR arrestin)
Cc1cccc(NC(=O)c2sc3nc4c(cc3c2N)CN(Cc2ccccc2)CC4)c1	none (no result: B2AR arrestin)
Oc1ccc(N2CCN(C(c3ccc(Cl)cc3)c3nnnn3Cc3ccc(F)cc3)CC2)cc1 (centres undefined)	none (no result: miR-21 reporter, B2AR arrestin, Nrf2 activator)
CCc1ccc(NC(=O)CSC2=C(C#N)C(c3ccco3)C3=C(CCCC3=O)N2)cc1 (centres undefined)	Nrf2 activator inconclusive
N#CC1=C(SCC(=O)c2ccc(Br)cc2)NC2=C(C(=O)CCC2)C1c1ccco1 (centres undefined)	A549 tox inconclusive, Nrf2 block 18µM
